This note sets out measurements from PMC10249106 (ACS Omega, 2023).

Chains of the proteins cited; added tags and fusions are not shown.
UniProt P11309, whole entry: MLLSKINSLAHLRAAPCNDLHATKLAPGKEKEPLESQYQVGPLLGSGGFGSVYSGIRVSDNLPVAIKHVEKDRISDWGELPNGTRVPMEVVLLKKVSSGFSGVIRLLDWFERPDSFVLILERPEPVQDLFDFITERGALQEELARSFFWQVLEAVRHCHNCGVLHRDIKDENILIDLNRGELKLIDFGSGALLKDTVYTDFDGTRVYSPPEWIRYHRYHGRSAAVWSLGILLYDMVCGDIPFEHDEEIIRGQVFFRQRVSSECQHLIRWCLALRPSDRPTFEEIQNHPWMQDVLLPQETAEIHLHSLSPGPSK

The target of the assay is Pim-1 kinase (Homo sapiens, UniProt P11309). Description: Pim-1 kinase inhibition, luminescent ADP-Glo kinase assay. Format: biochemical.

Usually IC50 stands for the concentration at which inhibition is half-maximal. `O=c1c(O)c(-c2ccc(O)c(O)c2)oc2cc(O)c(O)c(O)c12` [quercetagetin, 3,3′,4′,5,6,7-hexahydroxyflavone, reference compound] gave a concentration for half-maximal inhibition (IC50) of 0.56 ± 0.03 µM.
